## scFv variants of Ab-95 (light chain) against a SARS-CoV-2 spike peptide

Values reported by Engelhart et al. 2022, doi:10.1038/s41597-022-01779-4 (FLAb copy).

The target is the same throughout: PDVDLGDISGINAS, from the HR2 region of SARS-CoV-2 spike.

Each scFv is VH, a (GGGGS)3 linker, VL, as in the parent Ab-95, and differs from it in the CDRs of the light chain only.
VH: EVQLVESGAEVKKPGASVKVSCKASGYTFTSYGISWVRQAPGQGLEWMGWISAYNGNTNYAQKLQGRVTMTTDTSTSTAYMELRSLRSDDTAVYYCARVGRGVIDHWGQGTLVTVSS
VL: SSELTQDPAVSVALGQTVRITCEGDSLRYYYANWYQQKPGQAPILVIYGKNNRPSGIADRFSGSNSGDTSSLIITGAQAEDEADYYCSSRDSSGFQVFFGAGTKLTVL

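The parent was found by panning a naive human phage display library on the peptide. AAYL52 was designed without a model: most single CDR substitutions and a random sample of double and triple ones. Affinity was read by AlphaSeq, a pooled yeast mating assay with surface-displayed partners. The frequency of each diploid, read from paired DNA barcodes, reflects how well the two displayed proteins bind. Scores were corrected for input abundance and mapped to Kd with protein pairs of known affinity run in the same pool. There are three technical replicates.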

Positions count from residue 1 of the parent VL; S55L puts L in place of S. All variants listed here change S55 of the VL, counted from its first residue. Values are apparent Kd, the geometric mean of the replicates that gave a signal; lower means stronger binding. "nd" means that the variant was in the library but no mating with the target was seen in any replicate; the authors take this as a sign of poor binding, and no number exists.

For S55L/R90K/S92R, the assay gave 2.7 µM (3 of 3 replicates; controls 0 of 9).
For L27I/G49F/S55M, the assay gave 55 µM (2 of 3 replicates; controls 2 of 9).
For R28P/S55N/F95S, the assay gave 220 nM (3 of 3 replicates; controls 0 of 9).
For S55P, the assay gave 270 nM (3 of 3 replicates; controls 5 of 9).
For G24V/S26Q/S55R, the assay gave 22 µM (2 of 3 replicates; controls 2 of 9).
For S55T/S92F/F95W, the assay gave 670 nM (3 of 3 replicates; controls 4 of 9).
For D25F/R53I/S55G, the assay gave 2.9 µM (2 of 3 replicates; controls 1 of 9).
For Y29S/S55W/S93R, the assay gave 1.1 µM (3 of 3 replicates; controls 0 of 9).
For N51W/S55T/V97D, the assay gave nd (0 of 3 replicates; controls 1 of 9).
For Y29M/S55F/S93V, the assay gave 1.6 µM (3 of 3 replicates; controls 2 of 9).
For S55R/S92D/S93F, the assay gave 850 nM (2 of 3 replicates; controls 3 of 9).
For L27I/S55T/F98I, the assay gave 3.5 µM (2 of 3 replicates; controls 5 of 9).
For Y31P/N51G/S55V, the assay gave 18 nM (3 of 3 replicates; controls 2 of 9).
For Y30H/Y31L/S55E, the assay gave 8.4 nM (3 of 3 replicates; controls 2 of 9).
For S55C/S88Q/R90T, the assay gave 270 nM (3 of 3 replicates; controls 1 of 9).
For S26L/N51H/S55F, the assay gave 40 µM (1 of 3 replicates; controls 5 of 9).
For E23G/S55K/Q96T, the assay gave 710 nM (3 of 3 replicates; controls 2 of 9).
For N33K/G49V/S55I, the assay gave 22 µM (2 of 3 replicates; controls 2 of 9).
For L27M/S55T, the assay gave 330 nM (3 of 3 replicates; controls 3 of 9).
For N33Y/N52Y/S55W, the assay gave 19 µM (1 of 3 replicates; controls 0 of 9).
For S55D/S89Q, the assay gave 150 nM (3 of 3 replicates; controls 2 of 9).
For S26H/Y30F/S55Q, the assay gave 300 nM (3 of 3 replicates; controls 2 of 9).
For E23N/N33F/S55C, the assay gave 36 µM (1 of 3 replicates; controls 4 of 9).
For S55V/S93M/G94D, the assay gave 2.7 µM (1 of 3 replicates; controls 2 of 9).
For N33C/P54M/S55Y, the assay gave 220 µM (2 of 3 replicates; controls 3 of 9).
For D25M/S55I/S93H, the assay gave nd (0 of 3 replicates; controls 3 of 9).
For S55P/R90W/Q96N, the assay gave 4.1 µM (2 of 3 replicates; controls 4 of 9).
For Y29K/S55G/R90Y, the assay gave 2.5 µM (2 of 3 replicates; controls 2 of 9).
For E23A/N51E/S55Q, the assay gave 86 nM (3 of 3 replicates; controls 6 of 9).
For S55K/S89Q, the assay gave 6.9 µM (2 of 3 replicates; controls 0 of 9).
For A32Q/S55A/R90V, the assay gave nd (0 of 3 replicates; controls 2 of 9).
For R53Y/S55H/V97F, the assay gave 31 µM (1 of 3 replicates; controls 0 of 9).
For E23K/Y29A/S55H, the assay gave 77 nM (3 of 3 replicates; controls 1 of 9).
For Y31R/S55P, the assay gave 130 nM (3 of 3 replicates; controls 4 of 9).
For A32C/S55C/V97H, the assay gave 110 µM (1 of 3 replicates; controls 1 of 9).
For E23G/S55F/S93R, the assay gave 330 nM (3 of 3 replicates; controls 3 of 9).
For D25L/S55E/S93A, the assay gave 190 nM (3 of 3 replicates; controls 3 of 9).
For R28G/S55Y/G94F, the assay gave 950 nM (3 of 3 replicates; controls 5 of 9).
For K50N/S55R, the assay gave 120 nM (3 of 3 replicates; controls 1 of 9).
For E23A/R28W/S55F, the assay gave 1.4 µM (3 of 3 replicates; controls 1 of 9).
For G24F/Y31I/S55K, the assay gave 21 µM (1 of 3 replicates; controls 2 of 9).
For Y29R/S55W/S89E, the assay gave 22 nM (3 of 3 replicates; controls 2 of 9).

From the list, the first 3 with no signal in any replicate:

changes,apparent Kd,replicates with signal,signal with controls
N51W/S55T/V97D,nd,0 of 3,1 of 9
D25M/S55I/S93H,nd,0 of 3,3 of 9
A32Q/S55A/R90V,nd,0 of 3,2 of 9

For reference, the parent read 200 nM as the reference entry and 180 nM as a member of this library. Background: pairings of library AAYL52 with three empty control strains gave a value in 28% of cases (median 8.2 µM, 5th percentile 800 nM). Values in that range, when seen in few replicates, are hard to tell from nonspecific mating. For each scFv, signals with the empty controls are counted beside the result.